Values quoted from earlier work as cited in article PMC7238232, “Acamprosate Is a Substrate of the Human Organic Anion Transporter (OAT) 1 without OAT3 Inhibitory Properties: Implications for Renal Acamprosate Secretion and Drug–Drug Interactions” (Pharmaceutics, 2020).
pIC50: −log10 of the molar value. Read-outs that look alike come from different tables or passages of the source.

System: human OAT1
Conditions: cited from earlier work

CC(=O)Oc1ccccc1C(=O)O [acetylsalicylate]
pIC50 (read-out: IC50 of other drug substances inhibiting OAT1): 3.11

CCCN(CCC)S(=O)(=O)c1ccc(C(=O)O)cc1 [probenecid]
pIC50 (read-out: IC50, probenecid inhibition of PAH uptake, published values, other cell models expressing human OAT1): 4.51 to 5.22
